Target: Sodium-dependent serotonin transporter (Rattus norvegicus, UniProt P31652)
Experiment: Inhibition of rat SERT-mediated serotonin uptake in CHO cells
Type: cell-based

The chains behind the UniProt entries cited, without tags or fusion partners.
UniProt P31652, whole entry: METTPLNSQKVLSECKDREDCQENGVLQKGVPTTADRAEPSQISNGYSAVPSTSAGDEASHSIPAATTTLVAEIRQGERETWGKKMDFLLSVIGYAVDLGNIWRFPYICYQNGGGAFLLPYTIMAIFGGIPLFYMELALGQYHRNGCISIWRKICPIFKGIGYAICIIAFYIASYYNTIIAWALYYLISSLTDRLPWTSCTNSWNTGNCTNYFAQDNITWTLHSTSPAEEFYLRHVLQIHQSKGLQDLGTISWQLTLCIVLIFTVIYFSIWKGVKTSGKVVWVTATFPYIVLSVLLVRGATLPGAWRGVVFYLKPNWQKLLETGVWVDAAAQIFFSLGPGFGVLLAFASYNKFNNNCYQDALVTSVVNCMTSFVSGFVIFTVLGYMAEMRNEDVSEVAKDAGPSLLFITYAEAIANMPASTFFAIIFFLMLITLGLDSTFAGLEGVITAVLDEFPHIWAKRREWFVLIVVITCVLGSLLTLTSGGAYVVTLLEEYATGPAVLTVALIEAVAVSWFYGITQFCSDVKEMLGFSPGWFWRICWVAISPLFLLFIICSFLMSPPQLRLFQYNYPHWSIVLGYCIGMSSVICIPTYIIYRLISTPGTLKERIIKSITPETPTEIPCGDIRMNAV

COC(=O)[C@H]1[C@@H](OC(=O)c2ccccc2)C[C@@H]2CC[C@H]1N2C [COCAINE]
IC50: 400 nM

Source: ChEMBL document CHEMBL1138929, “Development of peptidic dopamine transporter inhibitors via aromatic modification-mediated conformational restriction” (J Med Chem, 2006)
